Apparent affinities of Ab-91 variants for a coronavirus HR2 peptide

Binding partner: SARS-CoV-2 spike HR2 peptide, sequence PDVDLGDISGINAS.

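The starting antibody came from a phage panning campaign against this peptide. The library (AAYL51) carries one to three amino acid substitutions per variant, with no insertions or deletions. In AlphaSeq, yeast of one mating type display the scFv and yeast of the other type display the target. Binding brings cells together so that they mate, and sequencing counts the barcode pairs among the diploids. Each replicate has its own calibration line, from reference interactions of the BCL2 family. Mating was done three times.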

Each scFv is VL, the linker GGGGSGGGGSGGGGS, VH, as in the parent Ab-91, and differs from it in the CDRs of the heavy chain only.
VL: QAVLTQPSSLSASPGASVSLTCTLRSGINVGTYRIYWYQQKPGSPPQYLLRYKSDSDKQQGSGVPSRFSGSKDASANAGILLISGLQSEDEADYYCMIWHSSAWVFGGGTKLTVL
VH: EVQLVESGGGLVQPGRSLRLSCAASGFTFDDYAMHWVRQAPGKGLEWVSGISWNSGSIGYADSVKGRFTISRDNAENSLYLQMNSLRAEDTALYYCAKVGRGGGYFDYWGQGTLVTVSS

Each variant's VH is given in full.
The read-out is the apparent dissociation constant on a log10 scale (nM): the lower, the stronger.
Averages over replicates are reported, and they cover detected replicates only.
A pair that was not seen in that replicate is written "ND"; this usually means weak binding, but a binder can also be missed.
In this assay the parent's reference entry averaged 1.86; its copy inside this library read 0.88.
Three control strains display no target. For library AAYL51, 21% of the pairings with them gave a signal, with a median of 4.54 and one signal in twenty below 3.26, so weak values seen in few replicates may be background. For each scFv, signals with the empty controls are counted beside the result, with their mean in brackets.

VH,log10 Kd (nM) by replicate,"log10 Kd (nM), mean",signal with controls
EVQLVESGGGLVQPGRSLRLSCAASGFTFDDYAMHWVRQAPGKGLEWVSFISWISGSIGYADSVKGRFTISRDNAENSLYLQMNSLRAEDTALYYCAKVGRGGGYFDMWGQGTLVTVSS,4.90 / 4.36 / 5.38,4.88,7/9 (4.96)
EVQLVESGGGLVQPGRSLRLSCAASGFEFDDYAMHWVRQAPGKGLEWVSGIHWNSGSIGYADSVKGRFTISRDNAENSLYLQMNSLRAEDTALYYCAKVGRGGGYFDYWGQGTLVTVSS,ND / 4.79 / ND,4.79,2/9 (3.80)
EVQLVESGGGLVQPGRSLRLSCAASGFTFWDYWYHWVRQAPGKGLEWVSGISWNSGSIGYADSVKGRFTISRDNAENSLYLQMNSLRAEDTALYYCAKVGRGGGYFDYWGQGTLVTVSS,5.20 / ND / ND,5.20,0/9
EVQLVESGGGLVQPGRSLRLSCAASGFTFCDYAMHWVRQAPGKGLEWVSGISWNSGSIGYADSVTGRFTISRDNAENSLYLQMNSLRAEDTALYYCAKWGRGGGYFDYWGQGTLVTVSS,ND / ND / ND,ND,0/9
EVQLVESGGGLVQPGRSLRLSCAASGFTFDDYAMTWVRQAPGKGLEWVSGISWWSGMIGYADSVKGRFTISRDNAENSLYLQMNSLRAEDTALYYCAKVGRGGGYFDYWGQGTLVTVSS,ND / ND / ND,ND,1/9 (4.97)
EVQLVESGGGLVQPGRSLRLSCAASGFTFDDYAMHWVRQAPGKGLEWVSGTSWNSGSIGYALSEKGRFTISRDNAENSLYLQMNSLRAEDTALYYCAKVGRGGGYFDYWGQGTLVTVSS,ND / ND / ND,ND,0/9
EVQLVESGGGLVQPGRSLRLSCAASGFTFDDYAMHWVRQAPGKGLEWVSGIQWNSGSIAYADSVKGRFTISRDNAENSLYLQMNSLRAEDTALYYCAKVGRGGGYFDYWGQGTLVTVSS,ND / ND / ND,ND,0/9
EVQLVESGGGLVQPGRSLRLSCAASGFTFDDYAMHWVRQAPGKGLEWVSGISWNVGSIGYADSVKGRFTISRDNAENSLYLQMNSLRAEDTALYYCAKVGRGGGYFDYWGQGTLVTVSS,4.07 / 3.91 / 4.13,4.04,1/9 (5.06)
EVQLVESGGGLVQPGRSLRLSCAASGFTFWDYAMHWVRQAPGKGLEWVSGISWNSGSIGYADSIKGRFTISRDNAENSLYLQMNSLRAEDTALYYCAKVGQGGGYFDYWGQGTLVTVSS,3.01 / 3.49 / 3.72,3.41,3/9 (5.29)
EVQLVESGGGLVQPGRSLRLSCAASGFTFDDYAIHWVRQAPGKGLEWVSGISWNSGSIGYADSVKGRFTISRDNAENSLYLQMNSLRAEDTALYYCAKVGRWGGYFDSWGQGTLVTVSS,2.62 / 2.56 / 2.06,2.41,7/9 (4.77)
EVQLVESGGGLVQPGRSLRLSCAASGFTFDDYVMHWVRQAPGKGLEWVSGISWNSGSIGYAFSIKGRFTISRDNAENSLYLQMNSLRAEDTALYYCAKVGRGGGYFDYWGQGTLVTVSS,ND / ND / ND,ND,0/9
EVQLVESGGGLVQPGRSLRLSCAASGFTFDDYAMHWVRQAPGKGLEWVSGISWNSLSIGAADSVKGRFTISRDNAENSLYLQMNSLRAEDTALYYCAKVGRDGGYFDYWGQGTLVTVSS,4.42 / ND / 5.38,4.90,3/9 (4.15)
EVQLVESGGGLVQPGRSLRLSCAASGFTFDDTAMHWVRQAPGKGLEWVSRISWNSGSIGYADSVKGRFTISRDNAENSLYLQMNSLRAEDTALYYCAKVGRGGGYFKYWGQGTLVTVSS,ND / ND / ND,ND,2/9 (4.09)
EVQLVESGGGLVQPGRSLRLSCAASGFTFDDYAMHWVRQAPGKGLEWVSGISSNSGSNGYADSVKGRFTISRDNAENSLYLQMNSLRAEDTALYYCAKVGRGGGYFEYWGQGTLVTVSS,ND / 3.05 / ND,3.05,0/9
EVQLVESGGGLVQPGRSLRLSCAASGFTFDDYANHWVRQAPGKGLEWVSGISWNSGSIGYADSVDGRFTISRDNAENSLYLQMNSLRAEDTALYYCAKVGIGGGYFDYWGQGTLVTVSS,ND / ND / ND,ND,0/9
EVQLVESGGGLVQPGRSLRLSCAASGFTFDDYAMHWVRQAPGKGLEWVSGISWNSGSPGYADSVKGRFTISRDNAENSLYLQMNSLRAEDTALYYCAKVGRGWEYFDYWGQGTLVTVSS,3.33 / ND / ND,3.33,0/9
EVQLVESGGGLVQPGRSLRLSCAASGFTFDMYAMHWVRQAPGKGLEWVSGISWNSGSIDYADSIKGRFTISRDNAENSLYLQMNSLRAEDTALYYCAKVGRGGGYFDYWGQGTLVTVSS,ND / ND / ND,ND,0/9
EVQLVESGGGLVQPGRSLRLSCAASGFTQDDYAMHWVRQAPGKGLEWVSGISWNSGSIYYADSVKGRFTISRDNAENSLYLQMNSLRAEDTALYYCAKFGRGGGYFDYWGQGTLVTVSS,ND / ND / ND,ND,1/9 (4.24)
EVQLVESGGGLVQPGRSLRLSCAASGFTFDDYGMHWVRQAPGKGLEWVSGISWNSGSIGYADSVKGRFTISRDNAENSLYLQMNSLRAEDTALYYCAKVGRGGGYFDYWGQGTLVTVSS,4.49 / 5.26 / ND,4.87,3/9 (4.22)
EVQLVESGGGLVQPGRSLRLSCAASGHTFDDYAMHWVRQAPGKGLEWVSGISMNSGSIGYAYSVKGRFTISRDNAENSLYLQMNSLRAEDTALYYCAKVGRGGGYFDYWGQGTLVTVSS,ND / ND / ND,ND,0/9
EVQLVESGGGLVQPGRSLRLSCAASGFTFDDNAMHWVRQAPGKGLEWVSWISWNSGSIGYADSVKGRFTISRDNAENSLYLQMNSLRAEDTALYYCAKVGRGGGYFDYWGQGTLVTVSS,ND / ND / ND,ND,0/9
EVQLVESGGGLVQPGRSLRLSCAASVFTFDDYAMHWVRQAPGKGLEWVSGISWNSGSIGYADAVVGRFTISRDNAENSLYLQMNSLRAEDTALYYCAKVGRGGGYFDYWGQGTLVTVSS,ND / ND / ND,ND,0/9
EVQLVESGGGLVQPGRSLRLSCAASGFYFDDYAMHWVRQAPGKGLEWVSGISWFSGSIGYFDSVKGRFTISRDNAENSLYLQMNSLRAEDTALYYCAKVGRGGGYFDYWGQGTLVTVSS,ND / ND / ND,ND,1/9 (2.82)
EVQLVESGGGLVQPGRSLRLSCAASGFHFDDHAMHWVRQAPGKGLEWVSGISWNSGSGGYADSVKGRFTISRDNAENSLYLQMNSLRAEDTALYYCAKVGRGGGYFDYWGQGTLVTVSS,5.22 / 3.90 / ND,4.56,2/9 (5.59)
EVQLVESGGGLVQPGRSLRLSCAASGFTFDNYAMHWVRQAPGKGLEWVSGISVNSGSIGYADIVKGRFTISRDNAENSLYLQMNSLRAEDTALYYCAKVGRGGGYFDYWGQGTLVTVSS,ND / ND / 2.83,2.83,0/9

2 of these entries, quoted again:

VH,log10 Kd (nM) by replicate,"log10 Kd (nM), mean",signal with controls
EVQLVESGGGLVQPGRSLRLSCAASGFTFDDYAMHWVRQAPGKGLEWVSFISWISGSIGYADSVKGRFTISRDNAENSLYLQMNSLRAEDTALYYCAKVGRGGGYFDMWGQGTLVTVSS,4.90 / 4.36 / 5.38,4.88,7/9 (4.96)
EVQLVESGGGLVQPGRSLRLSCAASGFEFDDYAMHWVRQAPGKGLEWVSGIHWNSGSIGYADSVKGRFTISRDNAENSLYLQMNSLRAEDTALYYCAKVGRGGGYFDYWGQGTLVTVSS,ND / 4.79 / ND,4.79,2/9 (3.80)

From the AlphaSeq antibody data of Engelhart et al. 2022 (doi:10.1038/s41597-022-01779-4), copy in the FLAb collection.